Laboratory results as given in paper PMC13600255 (Journal of the American Chemical Society, 2025).

By UniProt entry, the sequences of proteins in these tests, tags left out.
UniProt Q01827, whole entry: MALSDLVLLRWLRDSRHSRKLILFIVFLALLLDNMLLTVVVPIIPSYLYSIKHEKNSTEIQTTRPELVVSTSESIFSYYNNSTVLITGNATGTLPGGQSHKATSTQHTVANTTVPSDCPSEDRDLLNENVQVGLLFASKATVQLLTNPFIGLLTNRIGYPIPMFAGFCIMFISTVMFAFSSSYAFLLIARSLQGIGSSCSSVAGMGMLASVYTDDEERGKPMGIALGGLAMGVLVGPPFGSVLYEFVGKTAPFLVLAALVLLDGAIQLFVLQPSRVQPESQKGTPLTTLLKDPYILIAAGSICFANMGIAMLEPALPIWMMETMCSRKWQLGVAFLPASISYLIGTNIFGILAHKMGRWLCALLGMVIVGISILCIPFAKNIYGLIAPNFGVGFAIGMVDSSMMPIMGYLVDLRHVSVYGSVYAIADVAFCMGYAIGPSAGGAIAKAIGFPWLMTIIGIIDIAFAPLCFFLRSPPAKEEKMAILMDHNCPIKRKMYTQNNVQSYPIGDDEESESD
UniProt Q05940, whole entry: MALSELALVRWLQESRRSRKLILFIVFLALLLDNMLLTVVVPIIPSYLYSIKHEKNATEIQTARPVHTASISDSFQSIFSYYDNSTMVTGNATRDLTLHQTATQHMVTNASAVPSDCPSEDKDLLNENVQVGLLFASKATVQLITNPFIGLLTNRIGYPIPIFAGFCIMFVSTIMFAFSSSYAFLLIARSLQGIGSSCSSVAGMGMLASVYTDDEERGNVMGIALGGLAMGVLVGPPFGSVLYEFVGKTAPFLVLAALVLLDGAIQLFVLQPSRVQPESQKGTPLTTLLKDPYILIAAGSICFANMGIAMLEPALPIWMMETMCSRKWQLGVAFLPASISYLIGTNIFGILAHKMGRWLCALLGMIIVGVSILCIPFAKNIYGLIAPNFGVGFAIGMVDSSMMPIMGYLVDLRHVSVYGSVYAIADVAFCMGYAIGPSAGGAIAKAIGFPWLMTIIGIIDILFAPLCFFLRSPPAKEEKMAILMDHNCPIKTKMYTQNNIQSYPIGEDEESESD
UniProt P23975, whole entry: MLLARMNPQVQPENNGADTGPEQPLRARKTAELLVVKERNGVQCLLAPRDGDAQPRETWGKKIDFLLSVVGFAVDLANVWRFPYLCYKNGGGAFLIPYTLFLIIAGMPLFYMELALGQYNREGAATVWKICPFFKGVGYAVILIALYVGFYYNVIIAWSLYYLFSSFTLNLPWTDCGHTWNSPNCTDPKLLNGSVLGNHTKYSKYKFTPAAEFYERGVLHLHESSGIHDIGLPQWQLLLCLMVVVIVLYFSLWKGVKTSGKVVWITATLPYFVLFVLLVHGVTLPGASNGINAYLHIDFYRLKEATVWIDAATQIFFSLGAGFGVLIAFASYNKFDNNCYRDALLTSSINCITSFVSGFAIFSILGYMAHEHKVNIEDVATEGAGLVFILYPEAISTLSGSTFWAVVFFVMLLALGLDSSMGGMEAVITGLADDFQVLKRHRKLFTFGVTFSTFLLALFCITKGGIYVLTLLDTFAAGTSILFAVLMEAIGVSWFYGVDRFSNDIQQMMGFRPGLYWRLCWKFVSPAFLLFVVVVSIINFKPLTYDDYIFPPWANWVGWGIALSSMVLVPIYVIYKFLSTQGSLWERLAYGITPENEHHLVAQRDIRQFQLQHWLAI
UniProt P31652, whole entry: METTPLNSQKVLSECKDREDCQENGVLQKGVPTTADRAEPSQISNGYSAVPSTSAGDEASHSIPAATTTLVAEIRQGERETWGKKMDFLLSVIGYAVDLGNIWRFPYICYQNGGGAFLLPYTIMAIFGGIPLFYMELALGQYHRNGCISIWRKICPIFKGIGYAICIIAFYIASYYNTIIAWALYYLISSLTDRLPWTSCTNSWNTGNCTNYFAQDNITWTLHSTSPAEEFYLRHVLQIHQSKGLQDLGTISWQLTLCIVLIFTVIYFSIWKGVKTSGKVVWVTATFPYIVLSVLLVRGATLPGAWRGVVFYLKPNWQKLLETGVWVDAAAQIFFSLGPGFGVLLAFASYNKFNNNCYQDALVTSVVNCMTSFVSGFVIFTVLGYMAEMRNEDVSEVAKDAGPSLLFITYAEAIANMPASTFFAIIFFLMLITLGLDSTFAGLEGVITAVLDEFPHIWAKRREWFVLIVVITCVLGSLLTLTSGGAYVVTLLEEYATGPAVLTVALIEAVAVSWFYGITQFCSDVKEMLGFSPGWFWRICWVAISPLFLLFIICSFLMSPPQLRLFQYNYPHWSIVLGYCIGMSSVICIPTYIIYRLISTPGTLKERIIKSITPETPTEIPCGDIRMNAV

What was measured:
mice [1] = assay: Open field locomotor activity test in mice; conditions: s.c., dose-response
rat VMAT2 (rVMAT2) = rat VMAT2 (rVMAT2) (Rattus norvegicus, UniProt Q01827); assay: [3H]5-HT uptake inhibition in rat brain synaptic vesicular fraction; type: biochemical; conditions: read-out: Uptake Inhibition at VMAT2 IC50, [3H]5-HT (rVMAT2); rat brain synaptic vesicles
hVMAT2 = hVMAT2 (Homo sapiens, UniProt Q05940); assay: FFN206 fluorescent substrate uptake inhibition in hVMAT2-HEK cells; type: cell-based; conditions: read-out: IC50, hVMAT2 (uptake inhibition, FFN206), fluorescent substrate FFN206, n = 4
hNET = hNET (Homo sapiens, UniProt P23975); assay: APP+ fluorescent substrate uptake inhibition in hNET-HEK cells; type: cell-based; conditions: read-out: IC50, hNET
[2] = opioid-dependent human subjects, ibogaine 10 mg/kg, p.o.; cited from earlier work
[3] = Ibogaine plasma and brain exposure in humans; type: in vivo; conditions: human, 10 mg/kg p.o., plasma protein binding correction applied
hOCT2 = molecular target: T1, hOCT2 (Homo sapiens, UniProt O15244); assay: ASP+ fluorescent substrate uptake inhibition at OCT2; type: cell-based; conditions: read-out: IC50, hOCT2
T1 sequence (O15244 1-555): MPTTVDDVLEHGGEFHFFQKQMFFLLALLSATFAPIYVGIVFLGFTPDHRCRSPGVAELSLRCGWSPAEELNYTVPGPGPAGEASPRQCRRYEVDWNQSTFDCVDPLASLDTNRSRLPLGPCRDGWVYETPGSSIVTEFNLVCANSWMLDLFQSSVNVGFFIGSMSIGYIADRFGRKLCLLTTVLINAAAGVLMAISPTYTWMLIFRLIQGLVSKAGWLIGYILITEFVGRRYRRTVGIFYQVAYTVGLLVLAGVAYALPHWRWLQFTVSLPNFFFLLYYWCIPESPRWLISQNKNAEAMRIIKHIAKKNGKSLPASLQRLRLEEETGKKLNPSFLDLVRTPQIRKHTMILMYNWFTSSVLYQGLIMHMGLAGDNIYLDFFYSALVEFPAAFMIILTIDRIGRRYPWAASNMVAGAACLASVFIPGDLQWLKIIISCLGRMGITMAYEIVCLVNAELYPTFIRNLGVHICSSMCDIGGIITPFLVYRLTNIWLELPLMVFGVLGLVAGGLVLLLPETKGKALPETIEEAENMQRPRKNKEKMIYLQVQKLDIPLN

[4] = Pharmacokinetics in mice, estimated free drug concentration in brain; conditions: rodents (rats ref 11 and mice, Figure S11)
[5] = cited from earlier work
rat SERT (rSERT) [6] = molecular target: T2, rat SERT (rSERT) (Rattus norvegicus, UniProt P31652); conditions: read-out: IC50, rSERT reported previously in rat synaptosomes; cited from earlier work
Lipophilicity = conditions: Figure S17
rat SERT (rSERT) [7] = molecular target: T2, rat SERT (rSERT); assay: [3H]5-HT uptake inhibition in rat brain synaptosomes; type: biochemical
mice [8] = assay: Catalepsy bar test in mice
humans = conditions: cited from earlier work

ibogaine
Locomotor activity / sedation in open field test (mice [1]): suppressing locomotion
IC50 (rat VMAT2 (rVMAT2)): 0.56 µM
IC50 (hVMAT2): 0.39 µM
IC50 (hNET): 3.67 µM
Median plasma concentration [2]: ~ 4.8 μM
Plasma free concentration [3]: ~ 1.7 μM
IC50 (hOCT2): 9.31 µM
Concentration of free drug in the brain over plasma [4]: > 4 fold
Plasma protein binding, available [5]: 35%
Plasma protein binding, bound [5]: 65%
IC50 (rat SERT (rSERT) [6]): 3.15 µM
Difference in lipophilicity, ibogaine versus noribogaine (Lipophilicity): 1.5 log D units
IC50 (rat SERT (rSERT) [7]; read-out: Uptake Inhibition at SERT IC50, [3H]5-HT (rSERT)): 3.04 µM
IC50 (rat SERT (rSERT) [7]; read-out: [3H]5-HT Uptake Inhibition IC50 ± SD, SERT, n = 3): 3.04 ± 0.291 µM
Tremors (mice [8]; 30 mg/kg and higher): strong tremors
Catalepsy in bar test (mice [8]; s.c., dose-response): did not induce catalepsy
Ataxia (humans; high doses > 10 mg/kg, p.o.): can induce ataxia
Anesthesia-like states (humans; very high doses > 20 mg/kg): can lead to anesthesia-like states

Where two headings read alike, the source gives them in different places.
